According to CN114149501A:

How the values were obtained:
[1] = target: 人源重组C5蛋白 (Sino Biologica, Cat#13416-H18H) (human) (UniProt P01031); assay: BLI (Octet), antibody on AHC sensor, C5 0.4688-30 nM; run no. 1
[2] = target: 人源重组C5蛋白 (Sino Biologica, Cat#13416-H18H) (human) (UniProt P01031); assay: BLI (Octet), antibody on AHC sensor, C5 0.4688-30 nM; run no. 2
[3] = target: 人源重组C5蛋白 (Sino Biologica, Cat#13416-H18H) (human) (UniProt P01031); assay: BLI (Octet), antibody on AHC sensor, C5 0.4688-30 nM; run no. 3
[4] = target: 人源重组C5蛋白 (Sino Biologica, Cat#13416-H18H) (human) (UniProt P01031); assay: BLI (Octet), antibody on AHC sensor, C5 0.4688-30 nM; run no. 4
[5] = target: 人源重组C5蛋白 (Sino Biologica, Cat#13416-H18H) (human) (UniProt P01031); assay: BLI (Octet), antibody on AHC sensor, C5 0.4688-30 nM; run no. 5

“伊库利珠单抗(Eculizumab，Soliris/Alexion) (antibody)” showed a Kd [1] of 553 pM, a koff [1] of 0.0003 s⁻¹ and a kon [1] of 544000 M⁻¹ s⁻¹. It also gave a Kd [2] of 377 pM, a koff [2] of 0.000149 s⁻¹ and a kon [2] of 394000 M⁻¹ s⁻¹. For the same substance, the Kd [3] was 399 pM, the koff [3] was 0.000152 s⁻¹ and the kon [3] was 381000 M⁻¹ s⁻¹. For the same substance, the Kd [4] was 435 pM, the koff [4] was 0.000164 s⁻¹ and the kon [4] was 377000 M⁻¹ s⁻¹. It also gave a Kd [5] of 371 pM, a koff [5] of 0.00013 s⁻¹ and a kon [5] of 351000 M⁻¹ s⁻¹.
